This note sets out measurements from publication PMC8002179.

B1: wild type ACKR3 fused with Renilla luciferase (RLuc) on the C-terminal tail [human] / β-arrestin1 tagged with the eYFP fluorescent protein [not stated] (parent)
chain 1: MGDKGTRVFKKASPNGKLTVYLGKRDFVDHIDLVDPVDGVVLVDPEYLKERRVYVTLTCAFRYGREDLDVLGLTFRKDLFVANVQSFPPAPEDKKPLTRLQERLIKKLGEHAYPFTFEIPPNLPCSVTLQPGPEDTGKACGVDYEVKAFCAENLEEKIHKRNSVRLVIRKVQYAPERPGPQPTAETTRQFLMSDKPLHLEASLDKEIYYHGEPISVNVHVTNNTNKTVKKIKISVRQYADICLFNTAQYKCPVAMEEADDTVAPSSTFCKVYTLTPFLANNREKRGLALDGKLKHEDTNLASSTLLREGANREILGIIVSYKVKVKLVVSRGGLLGDLASSDVAVELPFTLMHPKPKEEPPHREVPENETPVDTNLIELDTNDDDIVFEDFARQRLKGMKDDKEEEEDGTGSPQLNNR
chain 2: MDLHLFDYSEPGNFSDISWPCNSSDCIVVDTVMCPNMPNKSVLLYTLSFIYIFIFVIGMIANSVVVWVNIQAKTTGYDTHCYILNLAIADLWVVLTIPVWVVSLVQHNQWPMGELTCKVTHLIFSINLFGSIFFLTCMSVDRYLSITYFTNTPSSRKKMVRRVVCILVWLLAFCVSLPDTYYLKTVTSASNNETYCRSFYPEHSIKEWLIGMELVSVVLGFAVPFSIIAVFYFLLARAISASSDQEKHSSRKIIFSYVVVFLVCWLPYHVAVLLDIFSILHYIPFTCRLEHALFTALHVTQCLSLVHCCVNPVLYSFINRNYRYELMKAFIFKYSAKTGLTKLIDASRVSETEYSALEQSTK

The variants in one assay derive from B1. The assay is described as follows: BRET. Conditions: CXCL12 (100 nM), HEK293T cells, read at last time point (~56 min), read off a plot. A general note: In BRET a luciferase serves as donor, and the signal depends on an acceptor being close.
Turning to chain 2 MDLHLFDYSEPGNFSDISWPCNSSDCIVVDTVMCPNMPNKSVLLYTLSFIYIFIFVIGMIANSVVVWVNIQAKTTGYDTHCYILNLAIADLWVVLTIPVWVVSLVQHNQWPMGELTCKVTHLIFSINLFGSIFFLTCMSVDRYLSITYFTNTPSSRKKMVRRVVCILVWLLAFCVSLPDTYYLKTVTSASNNETYCRSFYPEHSIKEWLIGMELVSVVLGFAVPFSIIAVFYFLLARAISASSDQEKHSSRKIIFSYVVVFLVCWLPYHVAVLLDIFSILHYIPFTCRLEHALFTALHVTQCLSLVHCCVNPVLYSFINRNYRYELMKAFIFKYSAKTGLTKLIDASRVAEAEYAALEQSTK [chain 2 S350A T352A S355A], the response came out at 1 fold vehicle.

Consider chain 2 MDLHLFDYSEPGNFSDISWPCNSSDCIVVDTVMCPNMPNKSVLLYTLSFIYIFIFVIGMIANSVVVWVNIQAKTTGYDTHCYILNLAIADLWVVLTIPVWVVSLVQHNQWPMGELTCKVTHLIFSINLFGSIFFLTCMSVDRYLSITYFTNTPSSRKKMVRRVVCILVWLLAFCVSLPDTYYLKTVTSASNNETYCRSFYPEHSIKEWLIGMELVSVVLGFAVPFSIIAVFYFLLARAISASSDQEKHSSRKIIFSYVVVFLVCWLPYHVAVLLDIFSILHYIPFTCRLEHALFTALHVTQCLSLVHCCVNPVLYSFINRNYRYELMKAFIFKYSAKTGLTKLIDASRVSETEYSALEQAAK [chain 2 S360A T361A], for which the response was found to be 1.08 fold vehicle.

The variants in another assay derive from B1. Nature of the assay: BRET. Conditions: CXCL12 (100 nM), HEK293T cells, read at last time point (~56 min), read off a plot. This is another data set of the same source.
Take chain 2 MDLHLFDYSEPGNFSDISWPCNSSDCIVVDTVMCPNMPNKSVLLYTLSFIYIFIFVIGMIANSVVVWVNIQAKTTGYDTHCYILNLAIADLWVVLTIPVWVVSLVQHNQWPMGELTCKVTHLIFSINLFGSIFFLTCMSVDRYLSITYFTNTPSSRKKMVRRVVCILVWLLAFCVSLPDTYYLKTVTSASNNETYCRSFYPEHSIKEWLIGMELVSVVLGFAVPFSIIAVFYFLLARAISASSDQEKHSSRKIIFSYVVVFLVCWLPYHVAVLLDIFSILHYIPFTCRLEHALFTALHVTQCLSLVHCCVNPVLYSFINRNYRYELMKAFIFKYSAKTGLTKLIDASRVAEAEYAALEQSTK [chain 2 S350A T352A S355A]: the response was found to be 1.01 fold vehicle.

For the variant chain 2 MDLHLFDYSEPGNFSDISWPCNSSDCIVVDTVMCPNMPNKSVLLYTLSFIYIFIFVIGMIANSVVVWVNIQAKTTGYDTHCYILNLAIADLWVVLTIPVWVVSLVQHNQWPMGELTCKVTHLIFSINLFGSIFFLTCMSVDRYLSITYFTNTPSSRKKMVRRVVCILVWLLAFCVSLPDTYYLKTVTSASNNETYCRSFYPEHSIKEWLIGMELVSVVLGFAVPFSIIAVFYFLLARAISASSDQEKHSSRKIIFSYVVVFLVCWLPYHVAVLLDIFSILHYIPFTCRLEHALFTALHVTQCLSLVHCCVNPVLYSFINRNYRYELMKAFIFKYSAKTGLTKLIDASRVAETEYSALEQSTK [chain 2 S350A], the response stood at 1.07 fold vehicle.

chain 2 MDLHLFDYSEPGNFSDISWPCNSSDCIVVDTVMCPNMPNKSVLLYTLSFIYIFIFVIGMIANSVVVWVNIQAKTTGYDTHCYILNLAIADLWVVLTIPVWVVSLVQHNQWPMGELTCKVTHLIFSINLFGSIFFLTCMSVDRYLSITYFTNTPSSRKKMVRRVVCILVWLLAFCVSLPDTYYLKTVTSASNNETYCRSFYPEHSIKEWLIGMELVSVVLGFAVPFSIIAVFYFLLARAISASSDQEKHSSRKIIFSYVVVFLVCWLPYHVAVLLDIFSILHYIPFTCRLEHALFTALHVTQCLSLVHCCVNPVLYSFINRNYRYELMKAFIFKYSAKTGLTKLIDASRVSETEYAALEQSTK [chain 2 S355A]: the response was 1.03 fold vehicle.

In the case of chain 2 MDLHLFDYSEPGNFSDISWPCNSSDCIVVDTVMCPNMPNKSVLLYTLSFIYIFIFVIGMIANSVVVWVNIQAKTTGYDTHCYILNLAIADLWVVLTIPVWVVSLVQHNQWPMGELTCKVTHLIFSINLFGSIFFLTCMSVDRYLSITYFTNTPSSRKKMVRRVVCILVWLLAFCVSLPDTYYLKTVTSASNNETYCRSFYPEHSIKEWLIGMELVSVVLGFAVPFSIIAVFYFLLARAISASSDQEKHSSRKIIFSYVVVFLVCWLPYHVAVLLDIFSILHYIPFTCRLEHALFTALHVTQCLSLVHCCVNPVLYSFINRNYRYELMKAFIFKYSAKTGLTKLIDASRVSEAEYSALEQSTK [chain 2 T352A], the response was determined as 1 fold vehicle.
